# In patent publication US9402842B2, “Synthesis and use of dual tyrosyl-DNA phosphodiesterase I (Tdp1)—topoisomerase I (Top1) inhibitors” (Purdue Research Foundation, priority 2012, dated 2016):
# Like-named read-outs stand apart in the source and are kept apart here.
# Tests used:
# HOP-62 = experiment: NCI screen cytotoxicity, lung HOP-62; details: read-out: Cytotoxicity (GI50 in μM) lung HOP-62; 50% growth inhibition
# UACC-62 = experiment: NCI screen cytotoxicity, melanoma UACC-62; details: read-out: Cytotoxicity (GI50 in μM) melanoma UACC-62; 50% growth inhibition
# DU-145 = experiment: NCI screen cytotoxicity, prostate DU-145; details: read-out: Cytotoxicity (GI50 in μM) prostate DU-145; 50% growth inhibition
# MDA-MB-435 = experiment: NCI screen cytotoxicity, breast MDA-MB-435; details: read-out: Cytotoxicity (GI50 in μM) breast MDA-MB-435; 50% growth inhibition
# SN12C = experiment: NCI screen cytotoxicity, renal SN12C; details: read-out: Cytotoxicity (GI50 in μM) renal SN12C; 50% growth inhibition
# SF-539 = experiment: NCI screen cytotoxicity, CNS SF-539; details: read-out: Cytotoxicity (GI50 in μM) CNS SF-539; 50% growth inhibition
# HCT-116 = experiment: NCI screen cytotoxicity, colon HCT-116; details: read-out: Cytotoxicity (GI50 in μM) colon HCT-116; 50% growth inhibition
# Tdp1 = Tdp1 (Homo sapiens (Human), UniProt Q9NUW8); experiment: Gel-based assay measuring the inhibition of recombinant Tdp1; format: biochemical
substance,measurement,setting,value
"N-(6-(5,11-Dioxo-5H-indeno[1,2-c]isoquinolin-6(11H)hexyl)-methanesulfonamide [Compound 84]",GI50,HOP-62,0.14 µM
same,GI50,UACC-62,0.14 µM
same,GI50,DU-145,0.05 µM
same,GI50,MDA-MB-435,0.96 µM
same,GI50,SN12C,0.05 µM
same,GI50,SF-539,0.39 µM
same,GI50,HCT-116,0.07 µM
same,IC50,Tdp1; read-out: Tdp1 (semiquantitative IC50 scale),1 to 12 µM
same,IC50,"Tdp1; read-out: Tdp1 (μM), IC50 values of Tdp1 active compounds",5.2 ± 0.1 µM
same,IC50,Tdp1; read-out: Tdp1 IC50,5.2 ± 0.1 µM
